Source: patent US20080200454A1, “CARBON-LINKED TETRAHYDRO-PYRAZOLO-PYRIDINE MODULATORS OF CATHEPSIN S” (priority 2007, published 2008)

Protein sequences, listed by entry. Tags and fused reporters are not part of them. Residues count along the entry.
UniProt P25774, 115-331: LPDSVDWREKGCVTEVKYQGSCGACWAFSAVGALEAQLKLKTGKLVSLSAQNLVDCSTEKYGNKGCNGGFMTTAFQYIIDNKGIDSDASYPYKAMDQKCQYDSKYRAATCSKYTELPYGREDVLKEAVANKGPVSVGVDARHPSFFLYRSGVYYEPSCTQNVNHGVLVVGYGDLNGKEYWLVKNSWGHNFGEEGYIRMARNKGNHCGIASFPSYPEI

Target: Recombinant human cathepsin S (CatS) (Homo sapiens, UniProt P25774)
Assay: Recombinant human cathepsin S (CatS) inhibition assay, fluorogenic substrate Z-Valine-Valine-Arginine-AMC;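 also: Baculovirus-expressed CatS in pH 5.0 sodium acetate buffer with DTT and NaCl, fluorescence read each minute over 20 min, inhibition derived from rate slope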
Details: read-out: CatS IC50; Table 4; average of results obtained

Substance: 3-(4-Chloro-3-{[4-({[(3-fluorophenyl)methyl]amino}methyl)phenyl]ethynyl}phenyl)-1-(3-thiomorpholin-4-ylpropyl)-1,4,6,7-tetrahydro-5H-pyrazolo[4,3-c]pyridine-5-carboxamide [Example 543]
- IC50: 130 nM
